Like-named read-outs stand apart in the source and are kept apart here.

The subject of this series is beagle dogs. The class given is in vivo. Particulars: 10 mg/kg Compound A. Here is the method:
The thymidylate synthase inhibitor Compound A (8 mg/kg) was lethal when administered to beagle dogs as an iv bolus for five consecutive days. In contrast Compound A at 20 mg/kg was not lethal when given as an iv bolus 30 minutes after oral administration of folic acid at 50 mg/kg. Similarly, five consecutive days of 10 mg/kg of Compound A iv was lethal when given alone.

In the case of `Cc1nc2ccc3ccc(CNc4ccc5c(c4)CN([C@@H](CCC(=O)O)C(=O)O)C5=O)cc3c2c(=O)[nH]1` [Compound A, (S)-2-(5-(((1,2-Dihydro-3-methyl-1-oxobenzo[f]quinazolin-9-yl)methyl)amino)-1-oxo-2-isoindolinyl)glutaric acid], the Dog tox. entry reads like this: (folic acid 0 mg/kg) “lethal”; (leucovorin 0 mg/kg) “Lethal”.

For the origin of these results see patent US6855712B2, “Combination of benzoquinazoline antifolates and protecting agents” (SmithKline Beecham Corporation, priority 1992, dated 2005).
